Measured values as given in patent publication US20140315834A1 (Medicon Pharmaceuticals, Inc., priority 2012, published 2014).

By UniProt entry, the sequences of proteins in these tests, tags left out.
UniProt P11712, whole entry, looked up: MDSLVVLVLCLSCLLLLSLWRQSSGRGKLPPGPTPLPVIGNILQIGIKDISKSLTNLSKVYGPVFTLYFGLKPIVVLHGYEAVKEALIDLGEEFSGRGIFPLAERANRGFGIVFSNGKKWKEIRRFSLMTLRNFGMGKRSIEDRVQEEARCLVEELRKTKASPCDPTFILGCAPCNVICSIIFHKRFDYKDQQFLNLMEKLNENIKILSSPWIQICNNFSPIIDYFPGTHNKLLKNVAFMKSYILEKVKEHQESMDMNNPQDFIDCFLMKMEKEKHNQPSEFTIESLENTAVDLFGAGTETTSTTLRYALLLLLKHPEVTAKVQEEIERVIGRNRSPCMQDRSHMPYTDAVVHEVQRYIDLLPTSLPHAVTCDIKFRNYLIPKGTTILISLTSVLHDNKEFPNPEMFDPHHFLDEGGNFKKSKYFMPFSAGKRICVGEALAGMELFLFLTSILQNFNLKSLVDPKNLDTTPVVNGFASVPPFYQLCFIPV
UniProt P08684, whole entry, looked up: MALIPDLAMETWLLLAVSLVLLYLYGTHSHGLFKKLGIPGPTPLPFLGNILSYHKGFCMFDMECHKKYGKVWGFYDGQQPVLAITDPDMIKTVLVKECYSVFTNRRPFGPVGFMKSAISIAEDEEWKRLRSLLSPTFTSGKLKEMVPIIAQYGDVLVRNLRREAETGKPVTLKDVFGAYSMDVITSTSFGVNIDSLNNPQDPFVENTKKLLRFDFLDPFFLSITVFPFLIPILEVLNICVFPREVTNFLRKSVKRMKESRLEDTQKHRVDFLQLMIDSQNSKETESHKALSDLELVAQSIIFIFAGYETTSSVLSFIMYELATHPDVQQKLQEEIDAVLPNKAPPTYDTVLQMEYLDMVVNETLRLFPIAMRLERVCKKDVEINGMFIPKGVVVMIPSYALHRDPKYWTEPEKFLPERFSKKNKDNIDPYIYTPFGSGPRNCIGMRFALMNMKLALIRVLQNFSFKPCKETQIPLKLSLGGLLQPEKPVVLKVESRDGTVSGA
UniProt P05177, whole entry, looked up: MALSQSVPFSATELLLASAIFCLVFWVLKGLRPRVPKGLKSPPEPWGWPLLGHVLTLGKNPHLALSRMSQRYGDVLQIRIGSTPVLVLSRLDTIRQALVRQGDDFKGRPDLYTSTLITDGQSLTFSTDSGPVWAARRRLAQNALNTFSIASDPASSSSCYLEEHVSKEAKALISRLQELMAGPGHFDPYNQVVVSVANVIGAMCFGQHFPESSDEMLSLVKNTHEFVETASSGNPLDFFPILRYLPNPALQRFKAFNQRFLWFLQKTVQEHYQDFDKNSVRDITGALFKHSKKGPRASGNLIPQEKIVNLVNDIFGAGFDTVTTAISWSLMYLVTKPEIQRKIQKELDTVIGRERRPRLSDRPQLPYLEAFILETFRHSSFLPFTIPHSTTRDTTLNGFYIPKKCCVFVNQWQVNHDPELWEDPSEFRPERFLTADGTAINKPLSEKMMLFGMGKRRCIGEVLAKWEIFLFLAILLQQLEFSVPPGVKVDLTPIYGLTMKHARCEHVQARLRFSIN

Key:
AGS = AGS gastric sc xenograft; type: in vivo, mice; conditions: 200 mg/kg/d × 3 week, ip
[1] = Tail-bleed assay, bleeding time
CYP 2C9 = CYP 2C9 (Homo sapiens, UniProt P11712); assay: In vitro metabolism by recombinant human CYP isoform 2C9; conditions: 37° C., NADPH-regenerating solution
[2] = Maximum tolerated doses and safety of amide compounds; conditions: nude mouse
[3] = Hot-plate test, analgesic effect; type: in vivo, Lewis rats; conditions: Dose 120 mg/kg ip, 30 minutes prior to testing
HCT116 = HCT116 colon xenograft; conditions: 250 mg/kg/d × 12 d, ip
[4] = Metabolism in liver microsomes
[5] = Pharmacokinetics of phosphosulindac amide, single oral dose; conditions: single oral dose 100 mg/kg PSA
A549 [6] = assay: A549 lung ot xenograft; type: in vivo, mice; conditions: 200 mg/kg/sd × 6 week, ip
CYP 3A4 = CYP 3A4 (Homo sapiens, UniProt P08684); assay: In vitro metabolism by recombinant human CYP isoform 3A4; conditions: 37° C., NADPH-regenerating solution
[7] = tested on: platelets (human platelet-rich plasma); assay: Thromboelastography, maximum signal amplitude (MA); type: cell-based; conditions: n=2
CYP 1A2 = CYP 1A2 (Homo sapiens, UniProt P05177); assay: In vitro metabolism by recombinant human CYP isoform 1A2; conditions: 37° C., NADPH-regenerating solution
A549 [8] = assay: A549 lung sc xenograft; conditions: 200 mg/kg/d × 24 d, ip

With CCOP(=O)(OCC)OCCCCNC(=O)CC1=C(C)/C(=C/c2ccc([S+](C)[O-])cc2)c2ccc(F)cc21 (stereo not drawn) as the compound, how does the Reduction (AGS) read?
Its Reduction is 67%.

And the Bleeding time ([1]; 150 mg/kg orally, 1 hour after administration)?
Its Bleeding time is 91 ± 6 s.

What about the “prolongation of the bleeding time” value ([1]; treated mice) of the same compound?
Its value is “no prolongation of the bleeding time”.

And the “oxidation by CYP 2C9” value (CYP 2C9)?
Its value is “minimally active”.

What about the “maximum tolerated dose (MTD)” value ([2]; ip, 3 week) of the same compound?
The value was 250 mg/kg/day.

What about the “maximum tolerated dose (MTD)” value ([2]; ip, 6 week) of the same compound?
Its value is 200 mg/kg/day.

What about the “maximum tolerated dose (MTD)” value ([2]; wt, po, 1 week) of the same compound?
The value was over 500 mg/kg/day.

What about the “Latency, sec Mean ± SEM” value [3] of the same compound?
Its value is 22.05 ± 0.55 s.

And the Reduction (HCT116)?
Its Reduction is 23%.

What about the “oxidation by liver microsomes” value [4] of the same compound?
Its value is “oxidized to 3-OH-PSA and 5-OH-PSA”.

What about the AUC0-24h [5] of the same compound?
Its AUC0-24h is 54.04 µM·h.

What about the Cmax [5] of the same compound?
The Cmax was 24 µM.

And the Tmax [5]?
The Tmax was 15 min.

And the Reduction (A549 [6])?
The Reduction was 77%.

What about the “oxidation by CYP 3A4” value (CYP 3A4) of the same compound?
Its value is “minimally active”.

What about the “effect on clots from platelet poor plasma (PPP) or purified fibrinogen” value [7] of the same compound?
The value was “no effect”.

What about the “oxidation by CYP 1A2” value (CYP 1A2) of the same compound?
Its value is “minimally active”.

And the Reduction (A549 [8])?
The Reduction was 88%.
